Test [1] in a line: CCTE_Padilla_ZF_144hpf_TERATOSCORE: (Legacy) CCTE's 144 Hour Post-fertilization zebrafish Assay Teratoscore, Padilla Lab (AID 2283679; active means hit-call score of the fitted dose curve at least 0.9, where 1 is the maximum; inactive means score below 0.9;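 further: zebrafish embryos with chorions exposed by immersion from 6-8 hpf to 5 dpf with daily renewal; teratogenicity score from eye scoring of death hatching and malformations at 144 hpf; higher score means more developmental defects relative to DMSO baseline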). The essentials: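 Larvae scored by eye at 144 hpf for death, hatching and malformations after a day in clean Hanks'. Before that, daily-renewed exposure at 80 uM (0.4% DMSO, 26C) from roughly 6-8 hpf through 5 dpf, 4 embryos per chemical.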
Read-out in test [2]: xenobiotic metabolism (CYP1A1), CYP1A1 (gene 1543)
Put plainly: CLD_CYP1A1_24hr: CellzDirect (CLD) Gene Expression Assay for xenobiotic metabolism (CYP1A1) at 24 hours (AID 2283673).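 Further: CYP1A1 mRNA level by quantitative nuclease protection with chemiluminescence.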 The essentials:
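Transcript levels were read at 24 h by qNPA chemiluminescence in human liver primary cells. Cells got daily fresh dosing at multiple concentrations (vehicle 0.2% DMSO). Induction fitted upward against DMSO; phase-contrast cytotoxicity annotated.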

Sequences of proteins named here, by UniProt entry; tags and fusion partners are left off. A change or cut given only in a name is not applied to a line headed by its entry.
UniProt P33261, whole entry, looked up: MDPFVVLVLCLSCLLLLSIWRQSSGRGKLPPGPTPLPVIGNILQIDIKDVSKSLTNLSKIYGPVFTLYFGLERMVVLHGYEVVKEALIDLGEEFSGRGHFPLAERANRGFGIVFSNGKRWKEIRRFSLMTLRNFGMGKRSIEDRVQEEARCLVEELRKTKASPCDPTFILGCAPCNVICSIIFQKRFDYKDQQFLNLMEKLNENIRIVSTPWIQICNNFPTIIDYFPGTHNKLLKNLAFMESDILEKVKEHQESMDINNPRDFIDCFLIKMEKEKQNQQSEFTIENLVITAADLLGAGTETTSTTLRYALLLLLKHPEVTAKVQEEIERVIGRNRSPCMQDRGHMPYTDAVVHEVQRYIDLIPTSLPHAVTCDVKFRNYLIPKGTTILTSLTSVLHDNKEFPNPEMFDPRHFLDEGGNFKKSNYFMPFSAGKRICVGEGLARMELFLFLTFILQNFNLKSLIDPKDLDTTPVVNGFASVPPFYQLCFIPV
UniProt P08684, whole entry, looked up: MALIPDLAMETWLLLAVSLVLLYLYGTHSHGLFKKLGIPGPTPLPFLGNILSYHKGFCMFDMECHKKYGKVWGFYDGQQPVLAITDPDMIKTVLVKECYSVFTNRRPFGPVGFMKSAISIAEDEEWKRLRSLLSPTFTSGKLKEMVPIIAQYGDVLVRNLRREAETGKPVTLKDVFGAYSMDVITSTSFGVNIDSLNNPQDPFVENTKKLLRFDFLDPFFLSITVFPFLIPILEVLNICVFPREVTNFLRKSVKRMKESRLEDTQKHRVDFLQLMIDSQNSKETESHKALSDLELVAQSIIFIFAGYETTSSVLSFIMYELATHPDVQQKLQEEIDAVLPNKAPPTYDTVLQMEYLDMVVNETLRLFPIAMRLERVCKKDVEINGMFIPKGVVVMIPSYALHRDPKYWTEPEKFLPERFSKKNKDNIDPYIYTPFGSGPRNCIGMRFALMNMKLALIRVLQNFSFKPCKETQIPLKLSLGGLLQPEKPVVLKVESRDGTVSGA
UniProt P04406: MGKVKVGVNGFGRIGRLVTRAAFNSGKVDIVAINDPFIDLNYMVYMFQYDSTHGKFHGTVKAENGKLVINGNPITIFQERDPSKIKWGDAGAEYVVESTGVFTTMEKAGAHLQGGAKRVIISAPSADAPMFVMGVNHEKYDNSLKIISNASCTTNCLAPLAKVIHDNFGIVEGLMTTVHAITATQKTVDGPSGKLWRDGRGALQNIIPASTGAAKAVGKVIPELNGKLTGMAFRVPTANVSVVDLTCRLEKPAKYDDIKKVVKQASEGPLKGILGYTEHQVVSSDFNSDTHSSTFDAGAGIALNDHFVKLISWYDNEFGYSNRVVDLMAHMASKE
UniProt P20813: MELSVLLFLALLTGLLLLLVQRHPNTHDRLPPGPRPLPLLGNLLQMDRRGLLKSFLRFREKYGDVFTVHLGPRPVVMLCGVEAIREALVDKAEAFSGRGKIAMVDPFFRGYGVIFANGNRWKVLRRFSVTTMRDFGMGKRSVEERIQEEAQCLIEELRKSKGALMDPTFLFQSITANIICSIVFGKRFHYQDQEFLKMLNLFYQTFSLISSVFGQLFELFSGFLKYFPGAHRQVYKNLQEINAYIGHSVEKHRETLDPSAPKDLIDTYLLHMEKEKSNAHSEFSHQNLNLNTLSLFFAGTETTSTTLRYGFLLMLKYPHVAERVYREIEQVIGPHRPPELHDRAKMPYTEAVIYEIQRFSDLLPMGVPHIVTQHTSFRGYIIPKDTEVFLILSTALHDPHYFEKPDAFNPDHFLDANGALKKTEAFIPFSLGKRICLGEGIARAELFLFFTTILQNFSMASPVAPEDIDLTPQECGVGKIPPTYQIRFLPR

Read-out in test [3]: ABC Transporter (ABCB11), ABCB11 (gene 8647)
Put plainly: CLD_ABCB11_24hr: CellzDirect (CLD) Gene Expression Assay for ABC Transporter (ABCB11) at 48 hours (AID 2283674; active means hit-call score of the fitted dose curve at least 0.9, where 1 is the maximum; inactive means score below 0.9). The essentials:
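ABCB11 transcript was quantified by qNPA chemiluminescence in cultured human liver hepatocytes 24 hours after dosing. Fresh dosing solutions were applied on consecutive days, against a 0.2% DMSO vehicle. Cytotoxicity was noted by phase-contrast morphology.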

Read-out in test [4]: ABC Transporter (ABCB11), ABCB11 (gene 8647)
Put plainly: CLD_ABCB11_6hr: CellzDirect (CLD) Gene Expression Assay for ABC Transporter (ABCB11) at 6 hours (AID 2283675).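 Further: hits raise ABCB11 mRNA level so AC50 marks induction.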 The method, then:
(§1) CLD_6hr is a cell-based, multiplexed-readout assay that uses hepatocyte, a human liver primary cell, with measurements taken at 6 hours after chemical dosing in a 96-well plate.CLD_ABCB11_6hr is one of 16 assay component(s) measured or calculated from the CLD_6hr assay. It is designed to make measurements of mRNA induction, a form of inducible reporter, as detected with chemiluminescence signals by Quantitative Nuclease Protection Assay (qNPA) technology.Data from the assay component CLD_ABCB11_6hr was analyzed at the endpoint, CLD_ABCB11_6hr, in the positive analysis fitting direction relative to DMSO as the negative control and baseline of activity. […] Furthermore, this assay endpoint can be referred to as a primary readout. […]
(§2) Human hepatocyte cultures were treated daily for two consecutive days with fresh dosing solutions containing appropriate concentrations of the 320 ToxCast chemicals (chemical identities were blinded to CellzDirect and other ToxCast collaborators), vehicle control (0.2% DMSO), and positive control inducers as summarized in Table 1. […] Cultures for each treatment group (i.e., media, vehicle [0.2% DMSO], positive control inducers [multiple concentrations], and the ToxCast chemicals [multiple concentrations]) were observed and cell morphology was assessed relative to vehicle control cultures at each harvest time point (0, 6, 24, or 48 h). […]

The nature of test [5]: CLD_ACTIN_6hr: CellzDirect (CLD) Gene Expression Assay for Baseline Control (Actin) at 6 hours (AID 2283676).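 Further: active means increased actin mRNA relative to DMSO vehicle.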 The essentials: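 Baseline actin transcript level measured by qNPA (S1 nuclease protection, chemiluminescence) in human hepatocyte cultures 6 h after chemical exposure; 0.2% DMSO vehicle as reference, cytotoxicity noted from morphology.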
Read-out in test [6]: Cytochrome P450 2C19 (Homo sapiens) (UniProt P33261)
Put plainly: CLD_CYP2C19_6hr: CellzDirect (CLD) Gene Expression Assay for xenobiotic metabolism (CYP1A2) at 6 hours (AID 2283678). The essentials: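 CYP2C19 transcript induction was quantified by quantitative nuclease protection assay with chemiluminescent read-out, 6 h after dosing. Cells were primary human hepatocytes from two donor preparations, given fresh dosing solutions daily in 0.2% DMSO vehicle. Activity was relative to DMSO.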

Read-out in test [7]: Cytochrome P450 3A4 (Homo sapiens) (UniProt P08684)
Kind of test: CLD_CYP3A4_6hr: CellzDirect (CLD) Gene Expression Assay for xenobiotic metabolism (CYP3A4) at 6 hours (AID 2283680). The method, then:
CLD_6hr is a cell-based, multiplexed-readout assay that uses hepatocyte, a human liver primary cell, with measurements taken at 6 hours after chemical dosing in a 96-well plate.CLD_CYP3A4_6hr is one of 16 assay component(s) measured or calculated from the CLD_6hr assay. It is designed to make measurements of mRNA induction, a form of inducible reporter, as detected with chemiluminescence signals by Quantitative Nuclease Protection Assay (qNPA) technology.Data from the assay component CLD_CYP3A4_6hr was analyzed at the endpoint, CLD_CYP3A4_6hr, in the positive analysis fitting direction relative to DMSO as the negative control and baseline of activity. Using a type of inducible reporter, gain-of-signal activity can be used to understand changes in the reporter gene as they relate to the gene CYP3A4. Furthermore, this assay endpoint can be referred to as a primary readout. To generalize the intended target to other relatable targets, this assay endpoint is annotated to the cyp intended target family, where subfamily is xenobiotic metabolism.
Human hepatocyte cultures were treated daily for two consecutive days with fresh dosing solutions containing appropriate concentrations of the 320 ToxCast chemicals (chemical identities were blinded to CellzDirect and other ToxCast collaborators), vehicle control (0.2% DMSO), and positive control inducers as summarized in Table 1. […] These replicate data, coupled with internal replicates designed within the blinded ToxCast chemical library, provided additional data to evaluate interindividual differences between hepatocyte preparations and their potential impact on chemical profiles.Cell morphology and integrity were evaluated using phase-contrast microscopy as an indicator of hepatocyte cell health (Tyson & Green, 1987). Cultures for each treatment group (i.e., media, vehicle [0.2% DMSO], positive control inducers [multiple concentrations], and the ToxCast chemicals [multiple concentrations]) were observed and cell morphology was assessed relative to vehicle control cultures at each harvest time point (0, 6, 24, or 48 h). […]

Read-out in test [8]: Glyceraldehyde-3-phosphate dehydrogenase (Homo sapiens) (UniProt P04406)
Put plainly: CLD_GAPDH_6hr: CellzDirect (CLD) Gene Expression Assay for Baseline Control (Glyceraldehyde 3-phosphate dehydrogenase) at 6 hours (AID 2283681).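 Further: active means increased signal relative to DMSO vehicle.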 The method, then:
as §1, with “plate.CLD_GAPDH_6hr” for “plate.CLD_ABCB11_6hr”, “CLD_GAPDH_6hr” for “CLD_ABCB11_6hr”, “CLD_GAPDH_6hr,” for “CLD_ABCB11_6hr,”, “secondary readout, because this assay has produced multiple assay endpoints where this one serves a background control function.” for “primary readout.”
Human hepatocyte cultures were treated daily for two consecutive days with fresh dosing solutions containing appropriate concentrations of the 320 ToxCast chemicals (chemical identities were blinded to CellzDirect and other ToxCast collaborators), vehicle control (0.2% DMSO), and positive control inducers as summarized in Table 1. […] Images were evaluated at the conclusion of the study to assess changes in cell integrity and account for the effects of chemical exposure on uncharacteristic changes in concentration-dependent gene expression profiles. […]

Read-out in test [9]: glucuronosyltransferase (UGT1A1), UGT1A1 (gene 54658)
Put plainly: CLD_UGT1A1_6hr: CellzDirect (CLD) Gene Expression Assay for glucuronosyltransferase (UGT1A1) at 6 hours (AID 2283672). The procedure: as §1, with “plate.CLD_UGT1A1_6hr” for “plate.CLD_ABCB11_6hr”, “CLD_UGT1A1_6hr” for “CLD_ABCB11_6hr”, “CLD_UGT1A1_6hr,” for “CLD_ABCB11_6hr,”
as §2

Read-out in test [10]: Cytochrome P450 2B6 (Homo sapiens) (UniProt P20813)
Kind of test: CLD_CYP2B6_6hr: CellzDirect (CLD) Gene Expression Assay for xenobiotic metabolism (CYP2B6) at 6 hours (AID 2283677).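 Further: actives raise CYP2B6 transcript above DMSO baseline so AC50 marks an inducer.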 The procedure:
as §1, with “plate.CLD_CYP2B6_6hr” for “plate.CLD_ABCB11_6hr”, “CLD_CYP2B6_6hr” for “CLD_ABCB11_6hr”, “CLD_CYP2B6_6hr,” for “CLD_ABCB11_6hr,”
as §2

“And” between values parts separate entries of the source, which are not always exact repeats. Equal values may be shown once. The entries are a selection whose mix differs from that of the whole data set. Results filed as inconclusive are left out. More than one record can exist for a structure, and the calls need not agree. The source made the active and inactive calls. How the source made its calls, unless noted: active means hit-call score of the fitted dose curve at least 0.9, where 1 is the maximum; inconclusive means response in the unintended direction; inactive means score below 0.9.

Regarding `Cc1cc([N+](=O)[O-])cc([N+](=O)[O-])c1O`, in test [1], the AC50 (usually the concentration giving half of the maximal activity seen) was active: 1510 nM.

For the compound `O=C1C2CC=CCC2C(=O)N1SC(Cl)(Cl)C(Cl)Cl` (centres undefined), the results for the AC50 in [2] and in test [1] were active: 20 µM and active: 2060 nM, respectively. The outcome in test [3], in test [4], in test [5], in test [6], in test [7] and in test [8] was inactive.

As for `CC(C)OP(=S)(OC(C)C)SCCNS(=O)(=O)c1ccccc1`, the compound was called inactive in test [9], in test [4], in test [5], in [10], in test [6] and in test [7]. Besides, the AC50 in test [2] was active: 20 µM and active: 15.4 µM; in [10] it was active: 3.98 µM and active: 608 nM; in [1], active: 13100 nM; in [7], active: 415 nM.

(Values after PubChem BioAssay (EPA / NIEHS).)
